Laboratory results from article PMC13334530 (Nature neuroscience, 2026).
“Also recorded” adds a separate entry of the source.

Experiments:
[1] = PAMPA-BBB permeability assay; format: in vitro ADME; settings: BBB-1 phospholipid mix, pH 7.4, 50 μM, N=3
[2] = tested on: primary mouse neurons; assay: Intracellular metabolite extraction from treated neurons; format: in vitro ADME; settings: DIV14 cortical neurons, extracted intracellular metabolites, 1 pg limit of detection
[3] = stereotactic injection into mouse hippocampus

Biotin-PEG24-Epoxomicin [iBEp]
fold less permeable than Epoxomicin in PAMPA-BBB [1]: at least 2500 fold | permeability into primary mouse neurons by LC/MS-based metabolite profiling [2]: no iBEp permeability; also recorded: no iBEp peak is identified | permeability in vivo (membrane fractionation of hippocampal tissues) [3]: do not detect permeability
